Bioassay records deposited in PubChem BioAssay by National Center for Advancing Translational Sciences (NCATS).
Most compounds without a hit are left out; they make up all but 2% or so of the library.
Rango-impB inh: Rango-importin beta binding inhibition. 340,000 compounds, 0.031% hits. Potency, µM (doses to about 92.2 µM), inactives show top-dose inhibition of complex formation. Q14974. Rango CFP/YFP FRET sensor + importin beta, 45 min; calls by dose curve;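 also: 0% = DMSO wells and 100% = buffer wells lacking importin beta; nearly all actives have a fitted effect of over 15% in size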
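FRET biosensor (snurportin 1 IBB flanked by EYFP and cerulean), 50 nM, with compound 5 min, then 0.125 microM importin beta in PBS, 1 mM DTT, 0.02% Tween-20, 0.1% BSA. CFP/YFP ratio read after 45 min at room temperature; pre-read flags interference.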
Rango release inh: prevents RanGTP from dissociating the Rango-importin beta complex. Potency, µM (titrated, usually from 46.1 µM), without a hit: top-dose activity change, negative = inhibition. Biochemical FRET Rango-importin beta, RanGTP-induced dissociation. O95149+P62826. 340,000 compounds, 0.071% hits; calls by dose curve; also: % of control where 0% means no effect; nearly all actives have a fitted effect of over 45% in size
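Rango (0.1 uM)–importin beta (0.25 uM) complex; RanGTP-RCC1 trigger; 45 min RT; CFP/YFP FRET read.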
aSyn yeast inh: inhibitors of alpha-synuclein toxicity in yeast | 370,000 compounds, 0.14% hits | Potency, µM (top dose mostly 46.1 µM), for the others: at the highest dose growth rescue (activation), most hits filed as activators | Yeast expressing alpha-synuclein, growth rescue, BacTiter-Glo, 24 h; also: % of control where 0% means no effect; nearly all actives have a fitted effect of over 65% in size
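Rescue of yeast growth: cells expressing toxic alpha-synuclein, induced in galactose at OD600 0.02, incubated with compound 24 h at 30 C. ATP luminescence quantified growth; inhibitors of toxicity appear as activators.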
TDP-43 yeast inh: rescues yeast growth from TDP-43 toxicity; TDP-43 expressing yeast growth rescue, BacTiter-Glo, 24 h; Potency, µM (top dose mostly 46.1 µM), for the others: at the top dose growth rescue (activation), most hits filed as activators; 410,000 compounds, 1.8% hits; AID 652104; also: % of control where 0% means no effect; nearly all actives have a fitted effect of over 50% in size
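Cell-based yeast growth screen: TDP-43 expression induced in galactose, inoculum OD600=0.02 after raffinose pregrowth to mid-log. Read-out BacTiter-Glo luminescence at 24 hr, 30 deg C; inhibition of toxicity seen as signal increase.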
Abeta rescue: A-beta toxicity reversal in yeast. Potency, µM (highest dose often 46.1 µM), usual class: activators. yeast expressing A-beta42, growth rescue, OD600, 48 h; response scale: 0% DMSO, 100% iron-clioquinol control. 410,000 compounds, 0.063% hits; also: nearly all actives have a fitted effect of over 55% in size
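Growth rescue measured by 600 nm absorbance after 48 h yeast culture at 30 C with compound. Values normalized between DMSO and an equimolar ferric chloride plus clioquinol control.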
ASM inhibitor: blocks human secretory acid sphingomyelinase. P17405. placental ASM, HMU-PC fluorogenic substrate, 60 min. Potency, µM (highest dose often 57.5 µM), inactives show at the highest dose activity change, negative = inhibition, actives largely listed as inhibitors. 340,000 compounds, 0.006% hits
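qHTS format. ASM enzyme prepared from human placenta hydrolyses the fluorogenic substrate HMU-PC0 (9 uM final) over 60 min at 37 °C after a 10 min compound preincubation.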
Numbers without * were called inactive; i = inactive; u = inconclusive; x = no result; [ ] = dose if it differs, or a comment. Unless noted, calls follow the shape of the dose curve; as a rule, active = well fitted curve in the direction sought with a large enough effect; inconclusive = small, poorly fitted or top-dose-only effect, or another doubt; inactive = no such curve, though single readings can be large; an effect the other way counts as inactive or inconclusive. Potency is read from the fitted curve at half-maximal effect.

SMILES	Rango-impB inh	Rango release inh	aSyn yeast inh	TDP-43 yeast inh	Abeta rescue	ASM inhibitor
O=C(N/N=C/C(Cl)=C/c1ccccc1)c1ccccc1F	-1.8%	6.4%	-2.5%	-12.0%	i	-4.4%
CCCCc1ccc(NC(=S)N2CCCC2)cc1	2.8%	-17.1%	-18.1%	20.9%	11.2µM*	-0.7%
CN1CCN(C(=S)Nc2ccc(Cl)c(Cl)c2)CC1	0.2%	0.0%	2.1%	-6.7%	i	-2.2%
S=C(Nc1ccc(Cl)c(Cl)c1)N1CCCC1	4.8%	1.9%	-6.4%	3.16µM*	i	5.0%
CCCCc1ccc(NC(=S)N2CCN(C)CC2)cc1	1.5%	1.1%	-11.2%	0.1%	i	3.5%
S=C(NCc1ccc2[nH]c3c(c2c1)CCCC3)Nc1ccccc1	-1.8%	-20.6%	u	17.8µM*	u	-7.7%
Cc1ccc(C(=O)c2cn(CC(=O)Nc3ccc4c(c3)OCCO4)c3nc(C)ccc3c2=O)cc1	x	x	x	15.3%	i	x
CCn1c(C)c(C)c2cc(C(=O)N3CCN(c4ccccc4)CC3)ccc21	-0.3%	-1.2%	20.5%	22.4µM*	i	-18.4%
Cc1cccc(OCC(=O)Nc2ccc(O)c(-c3nc4ccccc4o3)c2)c1	x	x	-2.9%	x	x	x
Oc1ccccc1C=NN=C1c2ccccc2-c2ccccc21	1.3%	3.9%	-3.2%	0.0%	i	-18.3%
CCCS/C(N)=N/N=C/c1cc(C)ccc1O	-0.3%	-12.1%	4.8%	12.4%	i	7.1%
C/C(=N/N=C/c1ccccc1O)c1ccccc1O	36.6µM*	u	0.0%	-6.5%	i	-3.2%
CCCCS/C(N)=N/N=C/c1ccccc1O	4.4%	-1.7%	-3.1%	11.2µM*	i	2.2%
C[C@@H]1C[C@H]2[C@@H]3CCC4=CC(=O)C=C[C@]4(C)[C@@]3(F)C(O)C[C@]2(C)[C@@]1(O)C(=O)CO (stereo not given in full)	x	x	-0.3%	x	x	x
Ic1ccc(Nc2nc(NCCN3CCOCC3)nc(N3CCOCC3)n2)cc1	x	x	1.9%	x	x	x
N#Cc1ccc(OCC(=O)NCCCN2CCCC2=O)cc1	x	x	-4.1%	10.3%	i	x
N#Cc1ccc(-c2ccc(OCC(=O)NCCCN3CCCC3=O)cc2)cc1	1.0%	0.6%	-11.8%	12.6µM*	i	12.1%
COc1ccc(NC(=O)NCCCN2CCCC2=O)c(OC)c1	0.4%	2.1%	x	0.001µM*	i	1.5%
O=S(=O)(Nc1ccc2nc(-c3ccc(F)cc3)oc2c1)c1ccccc1	x	x	x	35.5µM*	u	x
Cc1ccc(S(=O)(=O)Nc2ccc3nc(-c4ccc(F)cc4)oc3c2)cc1	x	x	x	0.0%	i	x
CN(C)N=Nc1ccc(/C=C2\C=Cc3ccccc32)cc1	x	x	-12.4%	x	x	x
Cc1cc(C(=O)Nc2ccc(Nc3ccccc3)cc2)ccc1[N+](=O)[O-]	-6.3%	22.0%	13.2%	12.6µM*	i	-23.7%
COc1ccc(N/C(C)=C/C(=S)Nc2ccccc2)cc1	-0.8%	-12.3%	22.4%	12.6µM*	i	-0.3%
COc1cc(/C=C2/C=Cc3ccccc32)ccc1N(C)C	x	x	2.2%	x	x	x
CC(=O)c1cccc(NC(=O)c2ccccc2N(C)S(=O)(=O)c2ccc(C)cc2)c1	-3.4%	-12.1%	8.9%	3.9%	i	-1.2%

5 of the compounds above, comma-delimited:
SMILES,Rango-impB inh,Rango release inh,aSyn yeast inh,TDP-43 yeast inh,Abeta rescue,ASM inhibitor
CN1CCN(C(=S)Nc2ccc(Cl)c(Cl)c2)CC1,0.2%,0.0%,2.1%,-6.7%,i,-2.2%
S=C(Nc1ccc(Cl)c(Cl)c1)N1CCCC1,4.8%,1.9%,-6.4%,3.16µM*,i,5.0%
CCCCc1ccc(NC(=S)N2CCN(C)CC2)cc1,1.5%,1.1%,-11.2%,0.1%,i,3.5%
S=C(NCc1ccc2[nH]c3c(c2c1)CCCC3)Nc1ccccc1,-1.8%,-20.6%,u,17.8µM*,u,-7.7%
Cc1ccc(C(=O)c2cn(CC(=O)Nc3ccc4c(c3)OCCO4)c3nc(C)ccc3c2=O)cc1,x,x,x,15.3%,i,x

(list continues)
SMILES	Rango-impB inh	Rango release inh	aSyn yeast inh	TDP-43 yeast inh	Abeta rescue	ASM inhibitor
CN(c1ccccc1C(=O)Nc1cccc([N+](=O)[O-])c1)S(=O)(=O)c1ccccc1	1.2%	17.6%	2.3%	22.4µM*	i	-1.2%
CN(c1ccccc1C(=O)Nc1cccc([N+](=O)[O-])c1)S(C)(=O)=O	4.2%	-8.1%	0.2%	10.1%	i	0.0%
CCOC(=O)c1ccc(NC(=O)c2ccccc2N(C)S(=O)(=O)c2ccccc2)cc1	-0.7%	-1.7%	5.6%	35.5µM*	i	-9.7%
CN(c1ccccc1C(=O)Nc1cccc(Br)c1)S(=O)(=O)c1ccccc1	u	-7.5%	9.9%	28.2µM*	i	-2.9%
O=C(Nc1ccc(F)c(F)c1)c1cnn2c1NC(=C1CC1)C=C2C(F)F	x	x	-2.8%	x	x	x
O=C(CSc1nc(=O)n(Cc2ccco2)c2c1CCC2)Nc1cccc(F)c1	x	x	x	0.0%	i	x
Clc1ccc2c(Cl)cc[n+](CCC3CCCCC3)c2c1	x	x	-4.0%	x	x	x
COc1ccc(CCNC(=S)NC(=O)c2cccc([N+](=O)[O-])c2)cc1OC	-0.5%	0.6%	-1.5%	12.6µM*	i	0.0%
Cc1ccc(C(=O)NC(=S)NNC(=O)COc2ccc([N+](=O)[O-])cc2)cc1	-0.2%	-6.7%	11.5%	20µM*	u	-0.9%
CCCCCC(=O)NNC(=S)NC(=O)c1ccccc1[N+](=O)[O-]	4.8%	1.7%	16.4%	u	u	-0.7%
COc1ccc(CCNC(=S)NC(=O)c2ccccc2)cc1OC	6.0%	0.0%	1.8%	18.5%	i	-0.9%
CCCCCC(=O)NNC(=S)NC(=O)c1cccc([N+](=O)[O-])c1	-0.7%	-3.1%	15.8µM*	u	u	-1.3%
CC(C)NC(=S)NC(=O)c1ccc(-c2ccccc2)cc1	u	1.7%	-16.5%	17.8µM*	i	-1.4%
CC(=O)c1ccc(NC(=O)c2nc(-c3ccc(Cl)cc3)n3c2CCCCC3)cc1	x	x	x	3.9%	i	x
CCC(=O)NNC(=S)NC(=O)c1ccc(C)cc1	-0.8%	11.7%	u	20µM*	u	6.9%
COc1ccc(C(=O)NC(=S)NNC(=O)COc2ccccc2)cc1	-0.2%	-7.8%	17.8%	7.9%	u	-1.0%
O=C(COc1ccccc1)NNC(=S)NC(=O)c1ccccc1	-3.1%	27.9%	u	3.55µM*	u	0.7%
O=C(NC(=S)NNC(=O)c1cnccn1)c1ccc(Cl)cc1	0.8%	12.4%	5.01µM*	3.16µM*	i	-0.7%
O=C(CCc1ccccc1)NNC(=S)NC(=O)c1ccc(Cl)cc1	-1.8%	0.0%	12.6µM*	14.1µM*	u	-2.1%
COc1ccccc1N1CCN(C(=O)c2nn(-c3ccc(C)cc3)c(=O)n(C)c2=O)CC1	x	x	x	23.2%[9.22 µM]	i	x
Cc1oc2c(c1C(=O)Nc1cccc(Br)c1)C1=NCCN1C=N2	x	x	x	-10.4%	i	x
CCCC(=O)NC(=S)NNC(=O)c1ccc([N+](=O)[O-])cc1	-2.6%	1.1%	20µM*	14.9%	i	1.6%
CCCCCCCC(=O)NNC(=O)c1ccc([N+](=O)[O-])cc1	2.1%	5.8%	1.7%	7.3%	i	-2.8%

3 structures out of the list, ordered by formula weight, low to high:
SMILES	Rango-impB inh	Rango release inh	aSyn yeast inh	TDP-43 yeast inh	Abeta rescue	ASM inhibitor
Clc1ccc2c(Cl)cc[n+](CCC3CCCCC3)c2c1	x	x	-4.0%	x	x	x
CCCC(=O)NC(=S)NNC(=O)c1ccc([N+](=O)[O-])cc1	-2.6%	1.1%	20µM*	14.9%	i	1.6%
COc1ccc(C(=O)NC(=S)NNC(=O)COc2ccccc2)cc1	-0.2%	-7.8%	17.8%	7.9%	u	-1.0%
